{
  "sequences": {"note": "Amino acid sequences for entries named in this document (tags omitted). A change or cut given only in a name is not applied to a line headed by its entry.", "UniProt P05453": "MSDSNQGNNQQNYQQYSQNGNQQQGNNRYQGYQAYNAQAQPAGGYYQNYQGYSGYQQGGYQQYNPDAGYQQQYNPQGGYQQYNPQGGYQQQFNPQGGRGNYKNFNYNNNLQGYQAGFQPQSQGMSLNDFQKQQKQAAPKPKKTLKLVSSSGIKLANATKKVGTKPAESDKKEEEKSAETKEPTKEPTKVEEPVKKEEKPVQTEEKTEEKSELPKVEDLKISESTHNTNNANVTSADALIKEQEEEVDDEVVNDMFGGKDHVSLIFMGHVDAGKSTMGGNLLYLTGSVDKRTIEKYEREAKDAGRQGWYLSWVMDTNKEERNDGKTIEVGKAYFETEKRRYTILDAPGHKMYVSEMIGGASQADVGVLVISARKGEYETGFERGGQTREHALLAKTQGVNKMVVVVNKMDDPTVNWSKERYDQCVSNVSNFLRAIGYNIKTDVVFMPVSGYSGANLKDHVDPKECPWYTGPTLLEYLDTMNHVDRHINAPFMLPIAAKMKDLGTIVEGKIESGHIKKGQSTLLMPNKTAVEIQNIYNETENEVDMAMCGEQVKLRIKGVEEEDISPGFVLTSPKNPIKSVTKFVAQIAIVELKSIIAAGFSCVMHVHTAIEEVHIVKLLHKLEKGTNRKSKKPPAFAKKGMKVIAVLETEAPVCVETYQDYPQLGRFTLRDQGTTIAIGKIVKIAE"},
  "source": "paper PMC4209162",
  "about": "“Specific aromatic foldamers potently inhibit spontaneous and seeded Aβ42 and Aβ43 fibril assembly” (Biochemical Journal, 2014)",
  "molecular_target": "prion domain, NM, of yeast Sup35 (Saccharomyces cerevisiae, UniProt P05453)",
  "assay": "Spontaneous NM fibrillization (ThT fluorescence)",
  "details": "NM 5 μM, foldamer 20 μM, 4 h; for Inhibition of NM fibrillization: 25°C, ThT",
  "data": [
    {"substance": "(Arg-Benz)4-CONH2", "values": [
      {"measurement": "Inhibition of NM fibrillization", "result": "did not inhibit NM fibrillization"},
      {"measurement": "ThT fluorescence of NM fibrils formed in presence of foldamer", "setting": "compared with NM alone", "result": "greater ThT fluorescence"}
    ]},
    {"substance": "Ac-Sal-(Lys-Sal)3-CONH2", "values": [
      {"measurement": "Inhibition of NM fibrillization", "result": "did not inhibit NM fibrillization"}
    ]},
    {"substance": "Sal-(Lys-Sal)3-CONH2", "values": [
      {"measurement": "Inhibition of NM fibrillization", "result": "did not inhibit NM fibrillization"}
    ]}
  ]
}
